The text below walks through data of ChEMBL document CHEMBL1157565, “Discovery of 1-[3-(4-bromo-2-methyl-2h-pyrazol-3-yl)-4-methoxyphenyl]-3-(2,4-difluorophenyl)urea (nelotanserin) and related 5-hydroxytryptamine2A inverse agonists for the treatment of insomnia” (J Med Chem, 2010).

By UniProt entry, the sequences of proteins in these tests, tags left out.
UniProt P14842, whole entry: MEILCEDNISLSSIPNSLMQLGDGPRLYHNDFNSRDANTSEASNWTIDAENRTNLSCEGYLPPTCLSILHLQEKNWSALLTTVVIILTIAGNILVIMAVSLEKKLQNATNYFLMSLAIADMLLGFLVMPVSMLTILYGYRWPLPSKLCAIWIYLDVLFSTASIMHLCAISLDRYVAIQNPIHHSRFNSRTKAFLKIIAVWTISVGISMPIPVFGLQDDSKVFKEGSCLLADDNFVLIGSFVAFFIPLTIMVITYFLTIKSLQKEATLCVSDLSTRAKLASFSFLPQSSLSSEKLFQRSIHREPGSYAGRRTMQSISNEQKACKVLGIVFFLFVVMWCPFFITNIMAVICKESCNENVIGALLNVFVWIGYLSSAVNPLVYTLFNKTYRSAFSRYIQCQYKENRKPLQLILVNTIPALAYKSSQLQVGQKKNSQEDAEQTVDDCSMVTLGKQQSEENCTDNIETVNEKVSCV

Usually Ki stands for the dissociation constant of the complex between target and ligand, obtained from inhibition or displacement.

This assay concerns the target 5-hydroxytryptamine receptor 2A (Rattus norvegicus, UniProt P14842). The experiment in a line: Displacement of [125I]DOI from rat recombinant 5HT2A receptor by scintillation counting. Background: Displacement assays read how much labelled ligand stays bound in the presence of the test substance.

Regarding `COc1ccc(NC(=O)Nc2ccc(Cl)cc2)cc1-c1c(Br)cnn1C`, the Ki is 3.98 nM.

Consider `COc1ccc(NC(=O)Nc2ccc(F)cc2)cc1-c1c(Br)cnn1C`, for which the Ki was 3.98 nM.
